{"sequences": {"note": "By UniProt entry, the sequences of proteins in these tests, tags left out. Where a name states a change or a piece, a line headed by the entry shows the natural chain unless it says otherwise. Residues count along the entry.", "UniProt P28223, whole entry": "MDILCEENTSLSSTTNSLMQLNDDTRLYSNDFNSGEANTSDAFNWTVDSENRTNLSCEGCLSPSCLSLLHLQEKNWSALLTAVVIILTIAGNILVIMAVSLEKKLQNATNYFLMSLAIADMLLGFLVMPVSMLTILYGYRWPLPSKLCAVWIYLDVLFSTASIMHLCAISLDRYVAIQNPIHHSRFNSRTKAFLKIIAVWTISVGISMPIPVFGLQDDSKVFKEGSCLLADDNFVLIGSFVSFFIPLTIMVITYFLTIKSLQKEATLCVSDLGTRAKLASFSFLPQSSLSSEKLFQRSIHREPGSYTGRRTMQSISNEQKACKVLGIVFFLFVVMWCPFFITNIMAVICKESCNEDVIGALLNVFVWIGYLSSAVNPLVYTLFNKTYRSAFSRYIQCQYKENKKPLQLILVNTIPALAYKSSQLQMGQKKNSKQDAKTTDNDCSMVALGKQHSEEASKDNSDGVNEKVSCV", "UniProt P08908, whole entry": "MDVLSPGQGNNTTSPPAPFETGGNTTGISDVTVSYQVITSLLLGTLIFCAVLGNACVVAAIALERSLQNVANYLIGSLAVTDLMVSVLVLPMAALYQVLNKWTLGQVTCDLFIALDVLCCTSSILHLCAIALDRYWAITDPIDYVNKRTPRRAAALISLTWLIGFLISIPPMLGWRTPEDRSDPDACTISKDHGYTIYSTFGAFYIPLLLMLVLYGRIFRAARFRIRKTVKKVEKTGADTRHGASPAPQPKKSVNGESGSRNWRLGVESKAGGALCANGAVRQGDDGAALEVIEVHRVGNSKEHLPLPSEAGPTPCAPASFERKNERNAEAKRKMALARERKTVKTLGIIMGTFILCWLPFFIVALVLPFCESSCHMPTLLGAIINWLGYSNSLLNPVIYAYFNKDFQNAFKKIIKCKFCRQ", "UniProt P14416, whole entry": "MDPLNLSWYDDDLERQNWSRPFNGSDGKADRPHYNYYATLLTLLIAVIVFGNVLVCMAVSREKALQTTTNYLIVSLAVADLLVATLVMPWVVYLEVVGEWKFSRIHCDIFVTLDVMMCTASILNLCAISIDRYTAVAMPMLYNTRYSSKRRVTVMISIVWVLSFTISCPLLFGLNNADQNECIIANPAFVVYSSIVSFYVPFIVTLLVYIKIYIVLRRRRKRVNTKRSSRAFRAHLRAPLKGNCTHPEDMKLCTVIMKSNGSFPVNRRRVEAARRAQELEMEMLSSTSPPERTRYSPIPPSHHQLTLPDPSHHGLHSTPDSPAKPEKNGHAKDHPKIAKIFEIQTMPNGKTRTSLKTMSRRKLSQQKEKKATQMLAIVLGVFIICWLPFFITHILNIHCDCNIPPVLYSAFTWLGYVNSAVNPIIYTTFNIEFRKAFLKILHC", "UniProt P14416, 1-414 isoform 2": "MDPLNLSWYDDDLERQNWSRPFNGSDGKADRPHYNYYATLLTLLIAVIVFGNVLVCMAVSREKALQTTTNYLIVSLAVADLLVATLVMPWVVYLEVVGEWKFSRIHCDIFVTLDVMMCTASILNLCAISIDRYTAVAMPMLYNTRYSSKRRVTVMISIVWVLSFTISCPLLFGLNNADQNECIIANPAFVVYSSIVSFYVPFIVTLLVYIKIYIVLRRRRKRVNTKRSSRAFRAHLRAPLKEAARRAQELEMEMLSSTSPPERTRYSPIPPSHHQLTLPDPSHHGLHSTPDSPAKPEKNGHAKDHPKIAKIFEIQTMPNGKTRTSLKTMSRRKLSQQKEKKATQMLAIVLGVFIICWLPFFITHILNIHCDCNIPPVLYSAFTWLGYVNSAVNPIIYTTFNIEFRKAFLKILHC"}, "source": "patent US20240368115A1", "about": "“REGULATOR CONTAINING TRICYCLIC DERIVATIVE, PREPARATION METHOD THEREFOR AND APPLICATION THEREOF” (SHUJING BIOPHARMA CO., LTD, priority 2021, published 2024)"}
{"molecular_target": "5-HT2A receptor (Homo sapiens, UniProt P28223)", "test": "Calcium flux test for 5-HT2A receptor", "type": "cell-based", "conditions": "CHO cell strain stably expressing 5-HT2A receptor; positive control ketanserin 10^−7 M", "units": {"5-HT2A Max Inh %": "%"}}
{"smiles": "O=C1Nc2cc(OCCCCN3CCN(c4cccc5c4OC(F)(F)O5)CC3)ccc2C2CC12", "note": "(single isomer, unassigned) [Example 41-P2]", "5-HT2A Max Inh %": 88.2}
{"smiles": "O=C1Nc2cc(OCCCCN3CCN(c4cccc5c4CC(F)(F)C5)CC3)ccc2C2CC12", "note": "(single isomer, unassigned) [Example 46-P2]", "5-HT2A Max Inh %": 90.9}
{"smiles": "O=C1Nc2cc(OCCCCN3CCN(c4cccc5c4OC(F)(F)O5)CC3)ccc2C2CC12", "note": "(single isomer, unassigned) [Example 41-P1]", "5-HT2A Max Inh %": 88.2}
{"smiles": "O=C1Nc2cc(OCCCCN3CCN(c4cccc5c4CC(F)(F)C5)CC3)ccc2C2CC12", "note": "(single isomer, unassigned) [Example 46-P1]", "5-HT2A Max Inh %": 96.4}
{"molecular_target": "5-HT2A receptor (Homo sapiens, UniProt P28223)", "test": "Calcium flux test for 5-HT2A receptor", "type": "cell-based", "conditions": "read-out: 5-HT2A IC50; CHO cell strain stably expressing 5-HT2A receptor; calcium flux, antagonism of serotonin", "units": {"IC50": "nM"}}
{"smiles": "O=C1Nc2cc(OCCCCN3CCN(c4cccc5c4OC(F)(F)O5)CC3)ccc2C2CC12", "note": "(single isomer, unassigned) [Example 41-P2]", "IC50": 3450}
{"smiles": "O=C1Nc2cc(OCCCCN3CCN(c4cccc5c4CC(F)(F)C5)CC3)ccc2C2CC12", "note": "(single isomer, unassigned) [Example 46-P2]", "IC50": 535}
{"smiles": "O=C1Nc2cc(OCCCCN3CCN(c4cccc5c4OC(F)(F)O5)CC3)ccc2C2CC12", "note": "(single isomer, unassigned) [Example 41-P1]", "IC50": 2910}
{"smiles": "O=C1Nc2cc(OCCCCN3CCN(c4cccc5c4CC(F)(F)C5)CC3)ccc2C2CC12", "note": "(single isomer, unassigned) [Example 46-P1]", "IC50": 910}
{"molecular_target": "5-HT1A receptor (Homo sapiens, UniProt P08908)", "test": "5-HT1A receptor cAMP agonist test", "type": "cell-based", "conditions": "HEK293 cell strain stably expressing 5-HT1A receptor; positive control serotonin 10^−6 M", "units": {"5-HT1A Max Act %": "%"}}
{"smiles": "O=C1Nc2cc(OCCCCN3CCN(c4cccc5c4OC(F)(F)O5)CC3)ccc2C2CC12", "note": "(single isomer, unassigned) [Example 41-P2]", "5-HT1A Max Act %": 96.2}
{"smiles": "O=C1Nc2cc(OCCCCN3CCN(c4cccc5c4CC(F)(F)C5)CC3)ccc2C2CC12", "note": "(single isomer, unassigned) [Example 46-P2]", "5-HT1A Max Act %": 59.3}
{"smiles": "O=C1Nc2cc(OCCCCN3CCN(c4cccc5c4OC(F)(F)O5)CC3)ccc2C2CC12", "note": "(single isomer, unassigned) [Example 41-P1]", "5-HT1A Max Act %": 99.0}
{"smiles": "O=C1Nc2cc(OCCCCN3CCN(c4cccc5c4CC(F)(F)C5)CC3)ccc2C2CC12", "note": "(single isomer, unassigned) [Example 46-P1]", "5-HT1A Max Act %": 67.7}
{"molecular_target": "5-HT1A receptor (Homo sapiens, UniProt P08908)", "test": "5-HT1A receptor cAMP agonist test", "type": "cell-based", "conditions": "read-out: 5-HT1A EC50; HEK293 cell strain stably expressing 5-HT1A receptor; cAMP; forskolin 2.5×10^−7 M", "units": {"EC50": "nM"}}
{"smiles": "O=C1Nc2cc(OCCCCN3CCN(c4cccc5c4OC(F)(F)O5)CC3)ccc2C2CC12", "note": "(single isomer, unassigned) [Example 41-P2]", "EC50": 18.6}
{"smiles": "O=C1Nc2cc(OCCCCN3CCN(c4cccc5c4CC(F)(F)C5)CC3)ccc2C2CC12", "note": "(single isomer, unassigned) [Example 46-P2]", "EC50": 258}
{"smiles": "O=C1Nc2cc(OCCCCN3CCN(c4cccc5c4OC(F)(F)O5)CC3)ccc2C2CC12", "note": "(single isomer, unassigned) [Example 41-P1]", "EC50": 36.5}
{"smiles": "O=C1Nc2cc(OCCCCN3CCN(c4cccc5c4CC(F)(F)C5)CC3)ccc2C2CC12", "note": "(single isomer, unassigned) [Example 46-P1]", "EC50": 345}
{"molecular_target": "D2L receptor (Homo sapiens, UniProt P14416)", "test": "D2L receptor cAMP agonist test", "type": "cell-based", "conditions": "HEK293 cell strain stably expressing D2L receptor; positive control dopamine 1 μM", "units": {"D2L Max Act %": "%"}}
{"smiles": "O=C1Nc2cc(OCCCCN3CCN(c4cccc5c4OC(F)(F)O5)CC3)ccc2C2CC12", "note": "(single isomer, unassigned) [Example 41-P2]", "D2L Max Act %": 58.6}
{"smiles": "O=C1Nc2cc(OCCCCN3CCN(c4cccc5c4CC(F)(F)C5)CC3)ccc2C2CC12", "note": "(single isomer, unassigned) [Example 46-P2]", "D2L Max Act %": 43.6}
{"smiles": "O=C1Nc2cc(OCCCCN3CCN(c4cccc5c4OC(F)(F)O5)CC3)ccc2C2CC12", "note": "(single isomer, unassigned) [Example 41-P1]", "D2L Max Act %": 46.7}
{"smiles": "O=C1Nc2cc(OCCCCN3CCN(c4cccc5c4CC(F)(F)C5)CC3)ccc2C2CC12", "note": "(single isomer, unassigned) [Example 46-P1]", "D2L Max Act %": 42.2}
{"molecular_target": "D2L receptor (Homo sapiens, UniProt P14416)", "test": "D2L receptor cAMP agonist test", "type": "cell-based", "conditions": "read-out: D2L EC50; HEK293 cell strain stably expressing D2L receptor; cAMP; forskolin 0.5 μM", "units": {"EC50": "nM"}}
{"smiles": "O=C1Nc2cc(OCCCCN3CCN(c4cccc5c4OC(F)(F)O5)CC3)ccc2C2CC12", "note": "(single isomer, unassigned) [Example 41-P2]", "EC50": 0.36}
{"smiles": "O=C1Nc2cc(OCCCCN3CCN(c4cccc5c4CC(F)(F)C5)CC3)ccc2C2CC12", "note": "(single isomer, unassigned) [Example 46-P2]", "EC50": 0.38}
{"smiles": "O=C1Nc2cc(OCCCCN3CCN(c4cccc5c4OC(F)(F)O5)CC3)ccc2C2CC12", "note": "(single isomer, unassigned) [Example 41-P1]", "EC50": 0.78}
{"smiles": "O=C1Nc2cc(OCCCCN3CCN(c4cccc5c4CC(F)(F)C5)CC3)ccc2C2CC12", "note": "(single isomer, unassigned) [Example 46-P1]", "EC50": 0.49}
{"molecular_target": "D2S receptor (Homo sapiens, UniProt P14416)", "test": "D2S receptor cAMP agonist test", "type": "cell-based", "conditions": "HEK293 cell strain stably expressing D2S receptor; positive control dopamine 1×10^−7 M", "units": {"D2S Max Act %": "%"}}
{"smiles": "O=C1Nc2cc(OCCCCN3CCN(c4cccc5c4OC(F)(F)O5)CC3)ccc2C2CC12", "note": "(single isomer, unassigned) [Example 41-P2]", "D2S Max Act %": 113.4}
{"smiles": "O=C1Nc2cc(OCCCCN3CCN(c4cccc5c4CC(F)(F)C5)CC3)ccc2C2CC12", "note": "(single isomer, unassigned) [Example 46-P2]", "D2S Max Act %": 110.2}
{"smiles": "O=C1Nc2cc(OCCCCN3CCN(c4cccc5c4OC(F)(F)O5)CC3)ccc2C2CC12", "note": "(single isomer, unassigned) [Example 41-P1]", "D2S Max Act %": 114.2}
{"smiles": "O=C1Nc2cc(OCCCCN3CCN(c4cccc5c4CC(F)(F)C5)CC3)ccc2C2CC12", "note": "(single isomer, unassigned) [Example 46-P1]", "D2S Max Act %": 113.3}
{"molecular_target": "D2S receptor (Homo sapiens, UniProt P14416)", "test": "D2S receptor cAMP agonist test", "type": "cell-based", "conditions": "read-out: D2S EC50; HEK293 cell strain stably expressing D2S receptor; cAMP; forskolin 5×10^−7 M", "units": {"EC50": "nM"}}
{"smiles": "O=C1Nc2cc(OCCCCN3CCN(c4cccc5c4OC(F)(F)O5)CC3)ccc2C2CC12", "note": "(single isomer, unassigned) [Example 41-P2]", "EC50": 0.96}
{"smiles": "O=C1Nc2cc(OCCCCN3CCN(c4cccc5c4OC(F)(F)O5)CC3)ccc2C2CC12", "note": "(single isomer, unassigned) [Example 41-P1]", "EC50": 0.93}
{"smiles": "O=C1Nc2cc(OCCCCN3CCN(c4cccc5c4CC(F)(F)C5)CC3)ccc2C2CC12", "note": "(single isomer, unassigned) [Example 46-P1]", "EC50": 0.96}
{"tested_on": "not listed separately", "test": "Pharmacokinetic test in mice", "conditions": "male ICR mice, oral intragastric, single dose 5 mg/kg, plasma", "units": {"AUC(0-inf)": "ng·h/mL", "Cmax": "ng/mL", "t1/2": "h"}}
{"smiles": "O=C1Nc2cc(OCCCCN3CCN(c4cccc5c4OC(F)(F)O5)CC3)ccc2C2CC12", "note": "(single isomer, unassigned) [Example 41-P2]", "AUC(0-inf)": 13958.8, "Cmax": 701.3, "t1/2": 15.9}
{"smiles": "O=C1Nc2cc(OCCCCN3CCN(c4cccc5c4CC(F)(F)C5)CC3)ccc2C2CC12", "note": "(single isomer, unassigned) [Example 46-P2]", "AUC(0-inf)": 6094.3, "Cmax": 837.7, "t1/2": 5.3}
{"smiles": "O=C1Nc2cc(OCCCCN3CCN(c4cccc5c4OC(F)(F)O5)CC3)ccc2C2CC12", "note": "(single isomer, unassigned) [Example 41-P1]", "AUC(0-inf)": 12950.5, "Cmax": 1593.3, "t1/2": 6.4}
{"smiles": "O=C1Nc2cc(OCCCCN3CCN(c4cccc5c4CC(F)(F)C5)CC3)ccc2C2CC12", "note": "(single isomer, unassigned) [Example 46-P1]", "AUC(0-inf)": 6287.5, "Cmax": 1240.7, "t1/2": 2.9}
